Results reported in PubChem BioAssay (NCI).
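Results reflect a 48-hour exposure of cells in 96-well plates to compound at five concentrations. Here, GI50 denotes the concentration required for 50% inhibition of growth. The concentration for full growth arrest is given as TGI.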

What was measured:
Test in all cases: NCI tumour cell line growth inhibition, 48 h
[1] = system: 786-0 renal
[2] = system: A498 renal
[3] = system: A549 NSCLC
[4] = system: ACHN renal
[5] = system: BT-549 breast
[6] = system: CAKI-1 renal
[7] = system: CCRF-CEM leukemia
[8] = system: COLO 205 colon
[9] = system: DU-145 prostate
[10] = system: EKVX NSCLC
[11] = system: HCC-2998 colon
[12] = system: HCT-116 colon
[13] = system: HCT-15 colon
[14] = system: HL-60(TB) leukemia
[15] = system: HOP-62 NSCLC
[16] = system: HOP-92 NSCLC
[17] = system: HS 578T breast
[18] = system: HT29 colon
[19] = system: IGROV1 ovarian
[20] = system: K-562 leukemia
[21] = system: KM12 colon
[22] = system: LOX IMVI melanoma
[23] = system: M14 melanoma
[24] = system: MALME-3M melanoma
[25] = system: MCF7 breast
[26] = system: MDA-MB-231 breast
[27] = system: MDA-MB-435
[28] = system: MOLT-4 leukemia
[29] = system: NCI-H226 lung
[30] = system: NCI-H23 lung
[31] = system: NCI-H322M lung
[32] = system: NCI-H460 lung
[33] = system: NCI-H522 lung
[34] = system: NCI/ADR-RES ovarian
[35] = system: OVCAR-3 ovarian
[36] = system: OVCAR-4 ovarian
[37] = system: OVCAR-5 ovarian
[38] = system: OVCAR-8 ovarian
[39] = system: PC-3 prostate
[40] = system: RPMI-8226 leukemia
[41] = system: RXF 393 renal
[42] = system: SF-268 CNS
[43] = system: SF-539 CNS
[44] = system: SK-MEL-2 melanoma
[45] = system: SK-MEL-28 melanoma
[46] = system: SK-MEL-5 melanoma
[47] = system: SK-OV-3 ovarian
[48] = system: SN12C renal
[49] = system: SNB-19 CNS
[50] = system: SNB-75 CNS
[51] = system: SR leukemia
[52] = system: SW-620 colon
[53] = system: T-47D breast
[54] = system: TK-10 renal
[55] = system: U251 CNS
[56] = system: UACC-257 melanoma
[57] = system: UACC-62 melanoma
[58] = system: UO-31 renal

Compound `Cc1c([N+](=O)[O-])c(C)c([N+](=O)[O-])c(Nc2c([N+](=O)[O-])c(C)c([N+](=O)[O-])c(C)c2[N+](=O)[O-])c1[N+](=O)[O-]` has a GI50 [1] of 1640 nM, a TGI [1] of 6.85 µM and a GI50 [2] of 219 nM. The TGI [2] was 1340 nM, the GI50 [3] was 2050 nM and the TGI [3] was 9.83 µM. It also gave a GI50 [4] of 2160 nM, a TGI [4] of 67.6 µM and a GI50 [5] of 1280 nM. For the same compound, the TGI [5] was 4.15 µM, the GI50 [6] was 1760 nM and the TGI [6] was 10.1 µM. For the same compound, the GI50 [7] was 463 nM, the TGI [7] was 3.67 µM and the GI50 [8] was 999 nM. The TGI [8] was 2150 nM, the GI50 [9] was 2970 nM and the TGI [9] was 17.9 µM. For the same compound, the GI50 [10] was 1760 nM, the TGI [10] was > 100 µM and the GI50 [11] was 550 nM. For the same compound, the TGI [11] was 4.99 µM, the GI50 [12] was 452 nM and the TGI [12] was 2040 nM. For the same compound, the GI50 [13] was 1280 nM, the TGI [13] was 4.02 µM and the GI50 [14] was 1810 nM. For the same compound, the TGI [14] was 4.82 µM, the GI50 [15] was 1070 nM and the TGI [15] was 2780 nM. For the same compound, the GI50 [16] was 218 nM, the TGI [16] was 747 nM and the GI50 [17] was 584 nM. The TGI [17] was 7.09 µM, the GI50 [18] was 1190 nM and the TGI [18] was 10.8 µM. The GI50 [19] was 3.1 µM, the TGI [19] was 16.9 µM and the GI50 [20] was 1400 nM. For the same compound, the TGI [20] was 29.9 µM, the GI50 [21] was 2460 nM and the TGI [21] was 7.94 µM. It also gave a GI50 [22] of 1450 nM, a TGI [22] of 5.36 µM and a GI50 [23] of 1780 nM. The TGI [23] was 6.28 µM, the GI50 [24] was 1270 nM and the TGI [24] was 11.9 µM. It also gave a GI50 [25] of 872 nM, a TGI [25] of 10.2 µM and a GI50 [26] of 455 nM. It also gave a TGI [26] of 2470 nM, a GI50 [27] of 2180 nM and a TGI [27] of 6.98 µM. For the same compound, the GI50 [28] was 1110 nM, the TGI [28] was 3.69 µM and the GI50 [29] was 1870 nM. For the same compound, the TGI [29] was 6.33 µM, the GI50 [30] was 1360 nM and the TGI [30] was 3.39 µM. It also gave a GI50 [31] of 1190 nM, a TGI [31] of 9.14 µM and a GI50 [32] of 2010 nM. The TGI [32] was 9.73 µM, the GI50 [33] was 1120 nM and the TGI [33] was 4.72 µM. For the same compound, the GI50 [34] was 1810 nM, the TGI [34] was 9.16 µM and the GI50 [35] was 1820 nM. For the same compound, the TGI [35] was 9.2 µM, the GI50 [36] was 1110 nM and the TGI [36] was 12.5 µM. For the same compound, the GI50 [37] was 2060 nM, the TGI [37] was 15.1 µM and the GI50 [38] was 2620 nM. It also gave a TGI [38] of 9.44 µM, a GI50 [39] of 578 nM and a TGI [39] of 5.76 µM. The GI50 [40] was 649 nM, the TGI [40] was 3.34 µM and the GI50 [41] was 858 nM. For the same compound, the TGI [41] was 5.16 µM, the GI50 [42] was 1980 nM and the TGI [42] was 16.4 µM. The GI50 [43] was 1940 nM, the TGI [43] was 12.1 µM and the GI50 [44] was 1450 nM. It also gave a TGI [44] of 3.61 µM, a GI50 [45] of 1940 nM and a TGI [45] of 7.38 µM. The GI50 [46] was 1550 nM, the TGI [46] was 3.35 µM and the GI50 [47] was 2430 nM. The TGI [47] was 7.59 µM, the GI50 [48] was 2130 nM and the TGI [48] was 13.1 µM. The GI50 [49] was 2340 nM, the TGI [49] was 38.4 µM and the GI50 [50] was 1340 nM. For the same compound, the TGI [50] was 7.72 µM, the GI50 [51] was 506 nM and the TGI [51] was 3.81 µM. The GI50 [52] was 1770 nM, the TGI [52] was 10.9 µM and the GI50 [53] was 1710 nM. The TGI [53] was 6.96 µM, the GI50 [54] was 3.76 µM and the TGI [54] was 12.9 µM. The GI50 [55] was 440 nM, the TGI [55] was 3.62 µM and the GI50 [56] was 2060 nM. It also gave a TGI [56] of 4.93 µM, a GI50 [57] of 1300 nM and a TGI [57] of 3.84 µM. It also gave a GI50 [58] of 2130 nM and a TGI [58] of 9.54 µM.
With `CC1CC[P+](c2ccccc2)(c2ccccc2)c2c1ccc1ccccc21.F[P-](F)(F)(F)(F)F` (configuration not stated) the TGI [34] was > 100 µM.
